Literature values, collected in patent publication US4769483A, “Cycloalkyl-substituted 4-aminophenyl derivatives and process for their preparation” (Farmitalia Carlo Erba, S.p.A., priority 1985, dated 1988).

Test system: aromatase
Conditions: literature reports; cited from earlier work

CCC1(c2ccc(N)cc2)CCC(=O)NC1=O (stereo not shown) [Aminoglutethimide, aminoglutethimide]
aromatase-inhibiting action (in words): more or less selective aromatase-inhibiting action
